Counter-ions that a name gives are not always drawn.
system: human PDE4D7 containing UCR1 activating mutation S54D (PDE4D7*); experiment: not given; conditions: ratio PDE4D7/PDE4D7*

| Compound | Selectivity PDE4 isoforms D/D* |
| --- | --- |
| O=C(O)c1ccc(Nc2nc(-c3ccc(Cl)cc3)nc(C3CC3)n2)cc1 [Example 38, 4-((4-(4-chlorophenyl)-6-cyclopropyl-1,3,5-triazin-2-yl)amino)benzoic acid] | − (− indicates a selectivity of ≤10×) |

target: human PDE4D7 containing UCR1 activating mutation S54D (PDE4D7*) (Homo sapiens (Human), UniProt Q08499, S129D); experiment: biochemical; conditions: not given

| IC50 [nM] | Compound |
| --- | --- |
| < 1000 | O=C(O)c1ccc(Nc2nc(-c3ccc(Cl)cc3)nc(C3CC3)n2)cc1 [Example 38, 4-((4-(4-chlorophenyl)-6-cyclopropyl-1,3,5-triazin-2-yl)amino)benzoic acid] |
| < 1000 | Clc1cccc(-c2nc3c(c(Nc4ccc(Cc5nnn[nH]5)cc4)n2)CCC3)c1 [Example 78, 2-(3-Chlorophenyl)-N-[4-(1H-tetrazol-5-ylmethyl)phenyl]-6,7-dihydro-5H-cyclopenta[d]pyrimidin-4-amine] |
| < 1000 | O=S1(=O)CCCc2nc(C3CCCC3)nc(Nc3ccc(CCO)cc3)c21 [Example 285, 2-Cyclopentyl-4-((4-(2-hydroxyethyl)phenyl)amino)-7,8-dihydro-6H-thiopyrano[3,2-d]pyrimidine 5,5-dioxide] |
| < 1000 | N#CNC(=O)Cc1ccc(Nc2nc(-c3cccc(Cl)c3)nc3c2S(=O)(=O)CCC3)cc1 [Example 315, 2-[4-[[2-(3-Chlorophenyl)-5,5-dioxo-7,8-dihydro-6H-thiopyrano[3,2-d]pyrimidin-4-yl]amino]phenyl]-N-cyano-acetamide] |
| < 1000 | CCc1c(C)nc(-c2ccc(Cl)s2)nc1Nc1ccc2c(c1)CS(=O)(=O)C2 [Example 312, 2-(5-Chloro-2-thienyl)-N-(2,2-dioxo-1,3-dihydro-2-benzothiophen-5-yl)-5-ethyl-6-methyl-pyrimidin-4-amine] |
| < 1000 | FC(F)(F)c1cc(Nc2ccc(Cc3nn[nH]n3)cc2)nc(-c2ccc(Cl)s2)n1 [Example 79, 2-(5-Chloro-2-thienyl)-N-[4-(2H-tetrazol-5-ylmethyl)phenyl]-6-(trifluoromethyl)pyrimidin-4-amine] |
| > 1000 | O=C(O)Cc1ccc(Nc2cc(C3CC3)nc(-c3ccc(Cl)s3)n2)cc1 [Example 297, 2-[4-[[2-(5-Chloro-2-thienyl)-6-cyclopropyl-pyrimidin-4-yl]amino]phenyl]acetic acid] |
| > 1000 | COC(=O)Cc1ccc(Nc2nc(Cl)nc(-c3ccc(Cl)s3)n2)cc1 [Example 35, methyl 2-(4-((4-chloro-6-(5-chlorothiophen-2-yl)-1,3,5-triazin-2-yl)amino)phenyl)acetate] |
| < 1000 | Cc1ccc(Cc2nc(-c3cccc(Cl)c3)nc3c2CCC3)cc1 [Example 69, 2-(3-Chlorophenyl)-4-(4-methylbenzyl)-6,7-dihydro-5H-cyclopenta[d]pyrimidine] |
| < 1000 | Clc1ccc(-c2nc3c(c(Nc4ccc(Cc5nnn[nH]5)cc4)n2)CCC3)s1 [Example 74, 2-(5-Chloro-2-thienyl)-N-[4-(1H-tetrazol-5-ylmethyl)phenyl]-6,7-dihydro-5H-cyclopenta[d]pyrimidin-4-amine] |
| > 1000 | CCc1c(C)nc(-c2ccc(Cl)s2)nc1Nc1ccc(Cc2noc(=O)[nH]2)cc1 [Example 302, 3-[[4-[[2-(5-Chloro-2-thienyl)-5-ethyl-6-methyl-pyrimidin-4-yl]amino]phenyl]methyl]-4H-1,2,4-oxadiazol-5-one] |
| < 1000 | O=S1(=O)CCCc2nc(-c3cccc(Cl)c3)nc(Nc3ccc(Cc4nn[nH]n4)cc3)c21 [Example 316, 2-(3-Chlorophenyl)-5,5-dioxo-N-[4-(2H-tetrazol-5-ylmethyl)phenyl]-7,8-dihydro-6H-thiopyrano[3,2-d]pyrimidin-4-amine] |
| > 1000 | CCc1c(C)nc(-c2ccc(Cl)s2)nc1Nc1ccc(Cc2nc(C(=O)O)c[nH]2)cc1 [Example 306, 2-[[4-[[2-(5-Chloro-2-thienyl)-5-ethyl-6-methyl-pyrimidin-4-yl]amino]phenyl]methyl]-1H-imidazole-4-carboxylic acid] |
| < 1000 | CCc1c(C)nc(-c2ccc(Cl)s2)nc1Nc1ccc(Cc2nnn[nH]2)cc1 [Example 73, 2-(5-Chloro-2-thienyl)-5-ethyl-6-methyl-N-[4-(1H-tetrazol-5-ylmethyl)phenyl]pyrimidin-4-amine] |
| > 1000 | O=C(O)Cc1ccc(Nc2cc(C3CC3)nc(-c3cccc(Cl)c3)n2)nc1 [Example 213, 2-(6-((2-(3-Chlorophenyl)-6-cyclopropylpyrimidin-4-yl)amino)pyridin-3-yl)acetic acid] |
| < 1000 | O=C(O)c1ccc(CNc2nc(-c3cccc(Cl)c3)nc(C3CC3)n2)cc1 [Example 46, 4-(((4-(3-chlorophenyl)-6-cyclopropyl-1,3,5-triazin-2-yl)amino)methyl)benzoic acid] |
| > 1000 | CCc1c(C)nc(-c2ccc(Cl)s2)nc1Nc1ccc2c(c1)B(O)OC2 [Example 72, 2-(5-Chloro-2-thienyl)-5-ethyl-N-(1-hydroxy-3H-2,1-benzoxaborol-6-yl)-6-methyl-pyrimidin-4-amine] |
| > 1000 | CCc1nc(NC2CCN(CC(=O)O)CC2)nc(-c2cccc(Cl)c2)n1 [Example 64, 2-(4-((4-(3-chlorophenyl)-6-ethyl-1,3,5-triazin-2-yl)amino)piperidin-1-yl)acetic acid] |
| < 1000 | CCc1nc(Nc2ccc(Cc3nnn[nH]3)cc2)nc(-c2cccc(Cl)c2)n1 [Example 55, N-(4-((2H-tetrazol-5-yl)methyl)phenyl)-4-(3-chlorophenyl)-6-ethyl-1,3,5-triazin-2-amine] |
| < 1000 | CCNC(=O)Cc1ccc(Nc2nc(-c3ccc(Cl)s3)nc(C)c2CC)cc1 [Example 309, 2-[4-[[2-(5-Chloro-2-thienyl)-5-ethyl-6-methyl-pyrimidin-4-yl]amino]phenyl]-N-ethyl-acetamide] |
| < 1000 | O=S1(=O)CCCc2nc(C3CCCC3)nc(Cc3ccc(CCO)cc3)c21 [Example 288, 2-Cyclopentyl-4-(4-(2-hydroxyethyl)benzyl)-7,8-dihydro-6H-thiopyrano[3,2-d]pyrimidine 5,5-dioxide] |
| < 1000 | NC(=O)Cc1ccc(Nc2nc(C3CCCC3)nc3c2SCCC3)cc1 [Example 284, 2-(4-((2-cyclopentyl-7,8-dihydro-6H-thiopyrano[3,2-d]pyrimidin-4-yl)amino)phenyl)acetamide] |
| < 1000 | O=C(O)c1ccc(CNc2nc(-c3ccc(Cl)cc3)nc(C3CC3)n2)cc1 [Example 45, 4-(((4-(4-chlorophenyl)-6-cyclopropyl-1,3,5-triazin-2-yl)amino)methyl)benzoic acid] |
| < 1000 | OCCc1ccc(Nc2cc(C3CC3)nc(-c3cccc(Cl)c3)n2)nc1 [Example 214] |
| > 1000 | OB1OCc2cc(Nc3nc(-c4cccc(Cl)c4)nc4c3CCC4)ccc21 [Example 294, 2-(3-Chlorophenyl)-N-(1-hydroxy-3H-2,1-benzoxaborol-5-yl)-6,7-dihydro-5H-cyclopenta[d]pyrimidin-4-amine] |
| < 1000 | CCc1c(C)nc(-c2ccc(Cl)s2)nc1Nc1ccc(-c2nnn[nH]2)cc1 [Example 76, 2-(5-Chloro-2-thienyl)-5-ethyl-6-methyl-N-[4-(1H-tetrazol-5-yl)phenyl]pyrimidin-4-amine] |
| < 1000 | Clc1ccc(-c2nc3c(c(Nc4ccc(-c5nnn[nH]5)cc4)n2)CCC3)s1 [Example 77, 2-(5-Chloro-2-thienyl)-N-[4-(1H-tetrazol-5-yl)phenyl]-6,7-dihydro-5H-cyclopenta[d]pyrimidin-4-amine] |

| Compound | IC50 [nM] |
| --- | --- |
| CCc1nc(Nc2ccc(C(=O)O)cc2)nc(-c2cccc(Cl)c2)n1 [Example 40, 4-((4-(3-chlorophenyl)-6-ethyl-1,3,5-triazin-2-yl)amino)benzoic acid] | < 1000 |
| CCc1cc(Cc2ccc(CC(N)=O)cc2)nc(-c2cccc(Cl)c2)n1 [Example 65, 2-(4-((2-(3-Chlorophenyl)-6-ethylpyrimidin-4-yl)methyl)phenyl)acetamide] | < 1000 |
| O=C(O)CCc1ccc(Nc2nc(-c3cccc(Cl)c3)nc3c2CCC3)cc1 [Example 16, 3-[4-[[2-(3-Chlorophenyl)-6,7-dihydro-5H-cyclopenta[d]pyrimidin-4-yl]amino]phenyl]propanoic acid] | < 1000 |
| NC(C(=O)O)c1ccc(Nc2nc(-c3ccc(Cl)s3)nc3c2CCC3)cc1 (stereo not shown) [Example 12, 2-Amino-2-[4-[[2-(5-chloro-2-thienyl)-6,7-dihydro-5H-cyclopenta[d]pyrimidin-4-yl]amino]phenyl]acetic acid hydrochloride] | > 1000 |
| CCc1cc(Cc2ccc(CC(=O)O)cc2)nc(-c2cccc(Cl)c2)n1 [Example 66, 2-(4-((2-(3-chlorophenyl)-6-ethylpyrimidin-4-yl)methyl)phenyl)acetic acid] | < 1000 |
| OCCc1ccc(Nc2cc(-c3cccc(Cl)c3)nc3c2CCC3)cc1 [Example 6, 2-[4-[[2-(3-Chlorophenyl)-6,7-dihydro-5H-cyclopenta[b]pyridin-4-yl]amino]phenyl]ethanol] | < 1000 |
| O=C(O)Cc1ccc(Nc2nc(-c3ccc(Cl)s3)nc3c2CCC3)cc1 [Example 9, 2-[4-[[2-(5-Chloro-2-thienyl)-6,7-dihydro-5H-cyclopenta[d]pyrimidin-4-yl]amino]phenyl]acetic acid] | < 1000 |
| O=C(O)Cc1ccc(Nc2cc(-c3cccc(Cl)c3)nc3c2CCC3)cc1 [Example 2, 2-[4-[[2-(3-Chlorophenyl)-6,7-dihydro-5H-cyclopenta[b]pyridin-4-yl]amino]phenyl]acetic acid] | > 1000 |
| CC(=O)NC(C(=O)O)c1ccc(Nc2nc(-c3ccc(Cl)s3)nc3c2CCC3)cc1 (stereo not shown) [Example 11, 2-Acetamido-2-[4-[[2-(5-chloro-2-thienyl)-6,7-dihydro-5H-cyclopenta[d]pyrimidin-4-yl]amino]phenyl]acetic acid] | > 1000 |
| CCc1nc(Nc2ccc(CCO)cc2)nc(-c2cccc(Cl)c2)n1 [Example 58, 2-(4-(4-(3-chlorophenyl)-6-ethyl-1,3,5-triazin-2-ylamino)phenyl)ethanol] | < 1000 |
| O=C(O)Cc1ccc(Nc2nc(-c3cccc(Cl)c3)nc3c2CCC3)cc1 [Example 10, 2-[4-[[2-(3-Chlorophenyl)-6,7-dihydro-5H-cyclopenta[d]pyrimidin-4-yl]amino]phenyl]acetic acid] | > 1000 |
| NC(=O)Cc1ccc(Nc2cc(-c3cccc(Cl)c3)nc3c2CCC3)cc1 [Example 3, 2-[4-[[2-(3-Chlorophenyl)-6,7-dihydro-5H-cyclopenta[b]pyridin-4-yl]amino]phenyl]acetamide] | < 1000 |

— patent US11401286B2 (Tetra Discovery Partners, LLC, priority 2012, dated 2022)
